Molecular target: SARS-COV-2 M^pro (authentic N- and C-termini) (Severe acute respiratory syndrome coronavirus 2, UniProt P0DTD1)
Type: biochemical
Conditions: read-out: Ki, app towards SARS-CoV-2 M^pro, athentic termini

CNCc1cc(-c2cccc3[nH]ncc23)cc(OC)c1OCC(=O)N(C)C [CDD-1777]
Ki: 2430 nM

From US20250276955A1, “CORONAVIRUS MAIN PROTEASE INHIBITORS AND METHODS USING SAME” (Baylor College of Medicine, priority 2021, published 2025)
